Ratio IC50 data for three molecules are collected here from ChEMBL document CHEMBL5543169, “Exploring Subsite Selectivity within Plasmodium vivax N-Myristoyltransferase Using Pyrazole-Derived Inhibitors” (J Med Chem, 2024).

The nature of assay [1]: Selectivity index, ratio of IC50 for human NMT1 to IC50 for Plasmodium vivax NMT.
Assay [2] in a line: Selectivity index, ratio of IC50 for human NMT2 to IC50 for Plasmodium vivax NMT.
A short description of assay [3]: Selectivity index, ratio of IC50 for NMT (unknown origin) to IC50 for Plasmodium vivax NMT.
Assay [4] in a line: Selectivity index, ratio of IC50 for human NMT to IC50 for Plasmodium vivax NMT (27 to 410 residues) expressed in Escherichia coli Rosetta 2 (DE3) cells.

For `Cc1nn(C)c(C)c1CCOc1cc(F)ccc1-c1ccc2c(c1)c(CN(C)C)nn2C`, the Ratio IC50 in assay [1] was 2.3; in assay [2], 3.8.

For `O=C(c1cccc(NCc2cc(-c3ccc(Cl)cc3)c[nH]c2=O)c1)N1CCOCC1`, in assay [3], the Ratio IC50 was found to be 37.

Take `Cc1nn(C)c(C)c1CCOc1cccnc1-c1cccc(N2CCNCC2)c1`: the Ratio IC50 in assay [4] was 259.
